We go through one compound from ChEMBL document CHEMBL4732045, “Amide Bond Bioisosteres: Strategies, Synthesis, and Successes” (J Med Chem, 2020).

The chains behind the UniProt entries cited, without tags or fusion partners. Where a name states a change or a piece, a line headed by the entry shows the natural chain unless it says otherwise.
UniProt P41145: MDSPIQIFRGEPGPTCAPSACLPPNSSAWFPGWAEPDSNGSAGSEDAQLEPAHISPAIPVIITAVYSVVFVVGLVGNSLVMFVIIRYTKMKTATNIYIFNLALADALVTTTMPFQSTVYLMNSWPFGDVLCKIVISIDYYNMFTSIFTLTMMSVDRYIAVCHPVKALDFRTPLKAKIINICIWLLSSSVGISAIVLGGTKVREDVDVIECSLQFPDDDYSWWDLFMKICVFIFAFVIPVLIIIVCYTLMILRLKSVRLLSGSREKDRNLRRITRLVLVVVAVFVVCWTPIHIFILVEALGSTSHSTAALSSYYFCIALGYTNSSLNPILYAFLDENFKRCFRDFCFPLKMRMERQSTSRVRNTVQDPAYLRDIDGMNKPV

For assay [1], the species on record is Homo sapiens. Kind of assay: Selectivity ratio of EC50 for human kappa opioid receptor expressed in CHO-K1 cells to EC50 for human delta opioid receptor expressed in CHO-K1 cells. In kind it is cell-based.
Assay [2] concerns the target Kappa-type opioid receptor (Homo sapiens, UniProt P41145).
Assay [3] is filed under the species Homo sapiens. Kind of assay: Selectivity ratio of EC50 for human mu opioid receptor expressed in CHO-K1 cells to EC50 for human delta opioid receptor expressed in CHO-K1 cells. In kind it is cell-based.

Turning to `CC(C)C[C@H](NC(=O)[C@H](Cc1ccccc1)NC(=O)CNC(=O)C/C=C(\F)[C@@H](N)Cc1ccc(O)cc1)C(=O)O`, the Ratio EC50 in assay [1] was above 2000; in assay [3] it was 12. In assay [2], this compound displayed an EC50 above 10 µM.

What is called EC50 is the concentration that produces a half-maximal response.
